Results published in patent US7132271B2, “Methods for enhancing the production of viral vaccines in cell culture” (priority 1995, dated 2006).

Columns and labels:
PKR = PKR autophosphorylation assay with poly(I):poly(C)-cellulose on cell extracts; format: biochemical, human
Description: Residual PKR activity in PKR-deficient cells can be determined by any of a number of techniques that are well-known in the art. The activity of PKR can be determined directly by, for example, an autophosphorylation assay such as that described in Maran et al. (Science 265:789–792 1994) or Silverman et al. (Silverman, R. H., and Krause, D. (1986) in Interferons: A practical approach. Morris, A. G. and Clemens, M. J., eds. pp. 71–74 IRL Press, Oxford-Washington, D.C.). Typically, an autophosphorylation assay for PKR activity is carried out as follows. Extracts from cells to be examined for PKR activity which contain approximately 100 μg of protein are incubated with 20 μl of poly(I):poly(C)-cellulose beads for 60 min on ice. The kinase is immobilized and activated on the beads. After washings of the polynucleotide cellulose-bound kinase fractions, an autophosphorylation reaction is performed at 30° C. for 30 min in an assay solution. […] The samples are heated at 90° C. for 3 min in gel sample buffer containing sodium dodecyl sulfate (SDS) and the proteins are analyzed by 10% SD S-polyacrylamide gel electrophoresis. […]
PKR kinase activity was measured in an autophosphorylation assay that uses poly(I):poly(C)-cellulose for binding and activation of PKR enzyme. […] Proteins were separated on a 10% SDS-polyacrylamide gel and analyzed by autoradiography.

human PKR = experiment: Western blot analysis of PKR protein in U937 transfectants; format: cell-based
Description: To further confirm the inhibition of PKR expression in the pPKR-AS-transfected cell lines, Western blot analysis was performed using a monoclonal antibody specific for human PKR. Cell extracts (100 μg) were separated on a 10% SDS-polyacrylamide gel and electrotransferred onto nitrocellulose membrane. The membranes were incubated with anti-PKR monoclonal antibody (Meurs et al. Cell 1990) at 1:1000 in BLOTTO (5% nonfat dry milk, 0.05% Tween-20 in Tris-buffered saline). Final detection of PKR was facilitated by probing with a secondary horseradish peroxidase-conjugated goat anti-mouse antibody (Santa Cruz Biotech) and using a chemiluminesence method (Amersham ECL).

IFN-α: recombinant human IFN-α2, Schering
PKR activity following treatment with IFN (PKR; U937-neo cells, recombinant human IFN-α2 200 U/mL): increased
Restoration of PKR activity by IFN treatment (PKR; four cell lines transfected with pPKR-AS or p[Arg^296]PKR): did not restore PKR activity
PKR protein level following treatment with IFN (human PKR; U937-AS1 and U937-AS3 cells): did not increase
PKR protein level following treatment with IFN (human PKR; U937-neo cells): increased
